{"source": "paper PMC4567495", "origin": "cited, not measured here", "target": "cardiac troponin I 38-57 (Homo sapiens) (UniProt P19429)", "experiment": "SPR and ELISA", "data": [{"substance": "cardiac troponin C (from UniProt P63316)", "values": [{"measurement": "Kd", "value": 3, "unit": "nM"}]}]}
